scFv variants of Ab-14 (heavy chain) against a SARS-CoV-2 spike peptide

Source: Li et al. 2023 (doi:10.1038/s41467-023-39022-2), MIT Lincoln Laboratory and A-Alpha Bio; data file from the FLAb repository.

Target peptide (SARS-CoV-2 spike, HR2 region): PDVDLGDISGINAS

Each scFv is VH, a 15-residue (Gly4Ser)3 linker, VL, as in the parent Ab-14, and differs from it in the CDRs of the heavy chain only.
VH: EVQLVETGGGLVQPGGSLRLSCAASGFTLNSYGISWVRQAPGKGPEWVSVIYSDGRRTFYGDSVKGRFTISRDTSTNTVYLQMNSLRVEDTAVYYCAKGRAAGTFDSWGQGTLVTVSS
VL: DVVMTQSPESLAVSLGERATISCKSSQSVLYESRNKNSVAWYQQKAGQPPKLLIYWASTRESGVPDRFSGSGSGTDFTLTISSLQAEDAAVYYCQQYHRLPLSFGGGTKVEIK

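Phage display of a naive human antibody library on the peptide gave the parent. These sequences belong to a second round, designed from the earlier measurements on random variants of the parent. Group labels follow the data file (Ctrl: baseline library sampled from a position-specific scoring matrix, with some repeated check sequences; Rand: our label for a block that the file lists under HC and that is probably the random mutants of the ten best first-round binders; En: ensemble of fine-tuned language models; GP: Gaussian process model; GPLM: also part of the Gaussian process libraries; HC: hill climbing; Gen: genetic algorithm; Gibbs: Gibbs sampling; a sequence that several methods proposed may carry one label only). The scFvs were displayed on barcoded MATa yeast, the peptide on MATalpha yeast. Pairs that bind mate more often; barcode pairs of the diploids are counted by sequencing. Each replicate has its own calibration line, from reference interactions of the BCL2 family. There are six technical replicates.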

Positions count from residue 1 of the parent VH; T28S puts S in place of T. Variants here have at most six changes. Kd is apparent (estimated from mating counts) and averaged on the log scale over replicates with a signal. Smaller is tighter. "no signal" means that the variant was in the library but no mating with the target was seen in any replicate; the authors take this as a sign of poor binding, and no number exists.

* T28S+R100Q+A101V+S107L [GP_Gibbs] -> 160 pM (4 of 6 replicates)
* T28D+S35G+T104W+D106N [Rand] -> 1.8 µM (1 of 6 replicates)
* T58M+R100N [Ctrl] -> 42 nM (3 of 6 replicates)
* G61A+R100Q+A101L+S107R [GPLM_HC] -> 5.5 nM (5 of 6 replicates)
* G26R+T28E+G61I+A101I [GP_HC] -> 30 nM (1 of 6 replicates)
* T28D+S31N+R100K [GPLM_Gen] -> 2.3 nM (6 of 6 replicates)
* S31E+R100V+A101F [GP_HC] -> 7.2 nM (6 of 6 replicates)
* T28N+K65D+F105T [Ctrl] -> no signal (0 of 6 replicates)
* S31E+F59M+A101L [GP_HC] -> 2.7 nM (6 of 6 replicates)
* R56L+G61S+R100Q [GPLM_Gen] -> 5.9 nM (6 of 6 replicates)
* G26T+G61S+S63D+R100W [Ctrl] -> no signal (0 of 6 replicates)
* S31E+D106T+S107F [GPLM_HC] -> no signal (0 of 6 replicates)
* T28E+S31E+G61T+A101F [GPLM_HC] -> 6.8 nM (6 of 6 replicates)
* S31E+G61T+A101F+F105P [Rand] -> no signal (0 of 6 replicates)
* T28N+S63D+R100E+S107R [GP_Gibbs] -> 32 nM (5 of 6 replicates)
* F27H+S31E+S53A+F59S [Ctrl] -> 1.2 nM (6 of 6 replicates)
* T28E+G99S+D106N [Ctrl] -> no signal (0 of 6 replicates)
* S31E+G61S+R100H+S107L [GP_HC] -> 650 pM (6 of 6 replicates)
* T28S+S31E+S63R+A101T+S107A [GP_Gibbs] -> 3.2 nM (5 of 6 replicates)
* G61I+G99N+F105W [Ctrl] -> no signal (0 of 6 replicates)
* T28D+S35G+F59A+R100L+T104W+D106N [Rand] -> no signal (0 of 6 replicates)
* S31D+F59W+G61I+A101C [GP_HC] -> no signal (0 of 6 replicates)
* T28D+G61K+R100K+A101E [GP_Gen] -> 540 pM (6 of 6 replicates)
* G26K+T28N+G61A+R100N [GP_Gen] -> 500 nM (2 of 6 replicates)
* N30D+S31Q+G99H+R100N+A101I+F105S [Ctrl] -> no signal (0 of 6 replicates)
* N30E+S31N+R100E+A102C+G103L [Ctrl] -> 120 nM (5 of 6 replicates)
* S31D+G61A+D106P [Ctrl] -> no signal (0 of 6 replicates)
* T28S+S31D+G61D+S63M+A101T [GP_Gibbs] -> 4.9 nM (6 of 6 replicates)
* T28N+S31E+S53A+G61S+R100E+S107I [En_HC] -> 490 pM (6 of 6 replicates)
* T28E+G61A+S63D+A101T+S107T [GP_Gibbs] -> 590 pM (6 of 6 replicates)
* F59S+R100E [Ctrl] -> 2.2 nM (4 of 6 replicates)
* F27V+A101P [Ctrl] -> no signal (0 of 6 replicates)
* T28D+D106I [Ctrl] -> no signal (0 of 6 replicates)
* S31D+R56I+D106T [GPLM_HC] -> no signal (0 of 6 replicates)
* S31E+F59Y+V64E+G99T [Ctrl] -> 4.1 µM (1 of 6 replicates)
* T28L+S31D+G61H [GP_HC] -> 6.5 nM (6 of 6 replicates)
* T28W+S31E+G61S+R100Q [GP_Gen] -> 1.8 nM (6 of 6 replicates)
* T28V+S31A+G61A+R100E [GP_Gibbs] -> 47 nM (6 of 6 replicates)
* N30D+T104Y+F105A+D106L [Rand] -> no signal (0 of 6 replicates)

The first 4 variants above that were never detected:

- T28N+K65D+F105T [Ctrl]: no signal (0 of 6 replicates)
- G26T+G61S+S63D+R100W [Ctrl]: no signal (0 of 6 replicates)
- S31E+D106T+S107F [GPLM_HC]: no signal (0 of 6 replicates)
- S31E+G61T+A101F+F105P [Rand]: no signal (0 of 6 replicates)

The authors' rule: three or more of the six replicates give a measured affinity, fewer mean a poor binder. Nonspecific signal, from three strains lacking the peptide, appeared in 1% of pairings of all heavy chain designs, centred on 120 nM (5% of these signals below 7.0 nM); values are not corrected for it. The range of this assay differs from that of the first round, and the authors advise against merging the two. Of ten entries with the parent sequence, four were seen in most replicates (averages 2.2 nM to 240 nM), three in one and three in none, so single entries are noisy.